The entries are a selection whose mix differs from that of the whole data set. Activity calls are given as the source filed them. Cut-off read from the data, not from the text of the source: active = activation above about 7.8%; inactive = the rest.
Experiment: SMARCA2 (BRM) function activators, primary screen, cell-based, luminescence, high throughput (AID 652017);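 note: 0% = vehicle wells and 100% = reference activator wells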
Settings: MG213 cells, MMTV-luciferase reporter, dexamethasone, overnight; at 9.1 µM; active compounds read high

Compound	activation
CP(=O)(Nc1ccccc1Br)Oc1ccccc1 (stereo unspecified)	inactive: -2.3%
